Biological target: T1, ETA receptor (Sus scrofa, UniProt Q29010)
T1 construct: The plasma membrane of porcine lung (2 mg of protein); from tissue; host or cells: porcine lung plasma membrane
Test: Scatchard analysis of radioligand binding, ETA receptor
Settings: porcine lung plasma membrane
Protocol: The plasma membrane of porcine lung (2 mg of protein) is incubated at 37° C. for 1 hour with 30 pM [^125 I]ET-1 or 10 pM [^125 I]ET-3 in the absence or presence of various amounts of nonlabeled ligands in a total volume of 1 ml of 20 mM HEPES (pH 7.4), containing 145 mM NaCl, 5 mM KCl, 3 mM MgCl2, 1 mM EGTA 1 mg/ml bovine serum albumin, and 0.2 mg/ml bacitracin. After the incubation, unbound [^125 I]ETs were separated by centrifugation at 20,000×g for 20 min at 4° C. followed by aspiration of the supernatant. The radioactivity in the membrane pellet is measured in Wallac-1470 Wizard autogamma counter (Pharmacia). Nonspecific binding is defined as membrane-associated radioactivity in the presence of saturating concentrations of ETs (100 nM). Nonspecific binding is subtracted from the total binding and the difference is defined as specific binding. Total binding is always less than 15% of the total radioactivity added. The binding to the ETA receptor is determined with [^125 I]ET-1 in the presence of 1 nM nonlabeled ET-3 and the binding to the ETB receptor with [^125 I]ET-3 alone. […] From the inhibition curves for the binding of [^125 I]ETs, the apparant binding affinity constant (Ki) of one of the test compounds is calculated as a parameter of the affinity for the ETA and ETB receptors, as shown in the following table.

Protein sequences, listed by entry. Tags and fused reporters are not part of them. Residues count along the entry.
UniProt Q29010, 21-427: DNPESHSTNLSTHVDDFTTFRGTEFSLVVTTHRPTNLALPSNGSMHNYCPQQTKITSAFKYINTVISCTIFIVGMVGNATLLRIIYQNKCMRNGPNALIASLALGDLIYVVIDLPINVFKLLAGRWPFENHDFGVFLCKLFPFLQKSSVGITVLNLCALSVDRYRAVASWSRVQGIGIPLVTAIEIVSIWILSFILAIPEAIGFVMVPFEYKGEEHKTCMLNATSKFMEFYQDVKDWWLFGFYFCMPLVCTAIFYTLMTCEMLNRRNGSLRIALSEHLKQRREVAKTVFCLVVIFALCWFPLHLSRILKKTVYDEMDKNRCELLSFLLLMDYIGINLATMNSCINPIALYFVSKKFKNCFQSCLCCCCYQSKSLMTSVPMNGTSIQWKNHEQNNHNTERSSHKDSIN

For “[^125 I]ET-1: radiolabelled endothelin-1 purchased from Amersham International; ETs are vasoactive peptides with 21 amino acid residues”, the “maximum binding sites (Bmax)” value (in the presence of 1 nM nonlabeled ET-3) was 342 fmol/mg protein and the Kd (in the presence of 1 nM nonlabeled ET-3, read-out: apparant dissociation constant (Kd)) was 0.044 nM.

Source: US5703106A, “Antagonists of endothelin receptors” (priority 1994, dated 1997)
